{"sequences": {"note": "By UniProt entry, the sequences of proteins in these tests, tags left out. Where a name states a change or a piece, a line headed by the entry shows the natural chain unless it says otherwise.", "UniProt Q06187": "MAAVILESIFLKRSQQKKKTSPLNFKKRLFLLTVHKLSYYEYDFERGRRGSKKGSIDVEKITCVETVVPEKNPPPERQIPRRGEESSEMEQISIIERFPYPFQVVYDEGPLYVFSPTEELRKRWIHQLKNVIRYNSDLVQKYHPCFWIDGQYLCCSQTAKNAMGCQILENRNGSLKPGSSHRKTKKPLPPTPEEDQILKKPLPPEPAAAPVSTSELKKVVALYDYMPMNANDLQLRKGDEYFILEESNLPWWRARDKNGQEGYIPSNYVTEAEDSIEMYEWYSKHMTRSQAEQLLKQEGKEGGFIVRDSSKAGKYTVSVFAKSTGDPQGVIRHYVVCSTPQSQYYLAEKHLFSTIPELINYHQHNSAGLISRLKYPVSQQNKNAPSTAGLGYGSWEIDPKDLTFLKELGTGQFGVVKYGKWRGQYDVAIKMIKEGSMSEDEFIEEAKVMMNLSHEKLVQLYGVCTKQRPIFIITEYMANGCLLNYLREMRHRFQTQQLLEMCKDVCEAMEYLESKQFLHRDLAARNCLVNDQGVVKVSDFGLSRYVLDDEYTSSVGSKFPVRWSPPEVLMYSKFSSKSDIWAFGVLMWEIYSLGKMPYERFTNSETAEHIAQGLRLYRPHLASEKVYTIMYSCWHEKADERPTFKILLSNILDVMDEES"}, "source": "patent US9447106B2", "about": "“Substituted pyrazolo[1,5-a]pyrimidines as bruton's tyrosine kinase modulators” (Beigene, Ltd., priority 2013, dated 2016)", "key": {"[1]": {"biological_target": "phosphorylated Btk at Tyr223 in Ramos cells (Homo sapiens (Human), UniProt Q06187)", "assay": "Btk pY223 cellular assay (HTRF) in Ramos cells", "type": "cell-based", "settings": "1 hour compound incubation, pervanadate or Na3VO4 stimulation"}, "[2]": {"biological_target": "Recombinant Btk (Homo sapiens (Human), UniProt Q06187)", "assay": "Btk kinase assay (TR-FRET)", "settings": "IC50 (nM) Btk, 1 hour pre-incubation, ATP at Km"}}, "data": [{"smiles": "C=CC(=O)Nc1ccccc1C1CCNc2c(C(N)=O)c(-c3ccc(C)c(OC)c3)nn21", "note": "(single isomer, unassigned) [Compound 133a, (R or S) 7-(2-acrylamidophenyl)-2-(3-methoxy-4-methylphenyl)-4,5,6,7-tetrahydropyrazolo[1,5-a]pyrimidine-3-carboxamide]", "values": [{"measurement": "IC50", "setting": "[1]", "result": 2.9, "unit": "nM"}]}, {"smiles": "C=CC(=O)Nc1ccccc1C1CCNc2c(C(N)=O)c(-c3ccc(C)c(OC)c3)nn21", "note": "(stereo not drawn) [Compound 133, 7-(2-acrylamidophenyl)-2-(3-methoxy-4-methylphenyl)-4,5,6,7-tetrahydropyrazolo[1,5-a]pyrimidine-3-carboxamide]", "values": [{"measurement": "IC50", "setting": "[1]", "result": 1.8, "unit": "nM"}]}, {"smiles": "N#C/C=C/CN1CCc2[nH]c3c(C(N)=O)c(-c4ccc(Oc5ccccc5)cc4)nn3c2C1", "note": "[Compound 59, (E)-7-(3-Cyanoallyl)-2-(4-phenoxyphenyl)-5,6,7,8-tetrahydro-4H-pyrazolo[5′,1′:2,3]imidazo[4,5-c]pyridine-3-carboxamide]", "values": [{"measurement": "IC50", "setting": "[2]", "result": 43, "unit": "nM"}]}]}
